## Ab-14 heavy chain CDR variants: yeast mating affinities

Target peptide (SARS-CoV-2 spike, HR2 region): PDVDLGDISGINAS

Parent scFv Ab-14: VH joined to VL by three GGGGS repeats. Changes lie in the heavy chain CDRs alone.
VH: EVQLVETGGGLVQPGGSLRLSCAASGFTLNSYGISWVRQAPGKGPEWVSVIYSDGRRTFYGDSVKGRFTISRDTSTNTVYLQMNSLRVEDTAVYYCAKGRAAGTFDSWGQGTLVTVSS
VL: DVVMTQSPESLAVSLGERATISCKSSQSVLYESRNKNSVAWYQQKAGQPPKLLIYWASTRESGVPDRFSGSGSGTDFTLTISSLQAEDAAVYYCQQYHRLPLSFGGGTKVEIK

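The parent was found by panning a naive human phage display library on the peptide. Variants in AAYL49 differ from the parent at up to three CDR positions; double and triple changes were sampled at random. Affinity was read by AlphaSeq, a pooled yeast mating assay with surface-displayed partners. The frequency of each diploid, read from paired DNA barcodes, reflects how well the two displayed proteins bind. Scores were corrected for input abundance and mapped to Kd with protein pairs of known affinity run in the same pool. Mating was done three times.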

Changes read parent residue, position, new residue, counted from the first residue of the VH shown.
Affinities are written as log10 Kd with Kd in nM; a lower number is a better binder.
Averages over replicates are reported, and they cover detected replicates only.
A pair that was not seen in that replicate is written "n.d."; this usually means weak binding, but a binder can also be missed.
Empty control strains, which show no peptide, gave a signal in 15% of pairings with library AAYL49; the median was 4.06 and 95% of these signals were weaker than 2.83. No background was subtracted. Also given: how often the same scFv was detected with the empty control strains, with their mean in brackets.
In this assay the parent's reference entry averaged 0.65; its copy inside this library read 4.11 (one replicate of three).

{"changes": "Y60K T104C D106C", "log10 Kd, replicates": "n.d. 5.00 n.d.", "mean, log10 nM": "5.00", "control signals": "3 of 9 (4.41)"}
{"changes": "L29T S35Q T58N", "log10 Kd, replicates": "n.d. n.d. n.d.", "mean, log10 nM": "n.d.", "control signals": "1 of 9 (2.46)"}
{"changes": "Y32M G99D S107C", "log10 Kd, replicates": "3.74 4.09 n.d.", "mean, log10 nM": "3.91", "control signals": "4 of 9 (3.83)"}
{"changes": "Y32A G55F G103A", "log10 Kd, replicates": "4.46 3.33 4.71", "mean, log10 nM": "4.17", "control signals": "2 of 9 (4.38)"}
{"changes": "T28G L29A", "log10 Kd, replicates": "n.d. 2.19 4.03", "mean, log10 nM": "3.11", "control signals": "0 of 9"}
{"changes": "I34E", "log10 Kd, replicates": "n.d. 3.27 5.66", "mean, log10 nM": "4.46", "control signals": "0 of 9"}
{"changes": "D62V S63P T104V", "log10 Kd, replicates": "n.d. n.d. n.d.", "mean, log10 nM": "n.d.", "control signals": "0 of 9"}
{"changes": "S31G A101L S107M", "log10 Kd, replicates": "1.42 1.27 1.30", "mean, log10 nM": "1.33", "control signals": "4 of 9 (4.32)"}
{"changes": "F27G S35R", "log10 Kd, replicates": "n.d. n.d. n.d.", "mean, log10 nM": "n.d.", "control signals": "2 of 9 (3.65)"}
{"changes": "Y52F Y60R T104C", "log10 Kd, replicates": "n.d. n.d. n.d.", "mean, log10 nM": "n.d.", "control signals": "0 of 9"}
{"changes": "Y52A V64C K65I", "log10 Kd, replicates": "n.d. n.d. n.d.", "mean, log10 nM": "n.d.", "control signals": "1 of 9 (3.09)"}
{"changes": "I51R D54H S107K", "log10 Kd, replicates": "n.d. n.d. n.d.", "mean, log10 nM": "n.d.", "control signals": "0 of 9"}
{"changes": "L29R S53P F105K", "log10 Kd, replicates": "n.d. n.d. n.d.", "mean, log10 nM": "n.d.", "control signals": "0 of 9"}
{"changes": "I51W Y52P R57I", "log10 Kd, replicates": "5.76 4.24 n.d.", "mean, log10 nM": "5.00", "control signals": "3 of 9 (3.96)"}
{"changes": "S31I Y32K D62C", "log10 Kd, replicates": "n.d. n.d. n.d.", "mean, log10 nM": "n.d.", "control signals": "1 of 9 (4.72)"}
{"changes": "D54S A102Y", "log10 Kd, replicates": "n.d. n.d. n.d.", "mean, log10 nM": "n.d.", "control signals": "0 of 9"}
{"changes": "D54H G61V V64Y", "log10 Kd, replicates": "5.24 n.d. 4.32", "mean, log10 nM": "4.78", "control signals": "5 of 9 (4.59)"}
{"changes": "S53F F59M T104C", "log10 Kd, replicates": "3.35 4.67 4.69", "mean, log10 nM": "4.24", "control signals": "3 of 9 (3.84)"}
{"changes": "I34Y T58Y F59G", "log10 Kd, replicates": "n.d. n.d. n.d.", "mean, log10 nM": "n.d.", "control signals": "0 of 9"}
{"changes": "G26C T58S S107P", "log10 Kd, replicates": "4.48 3.64 n.d.", "mean, log10 nM": "4.06", "control signals": "4 of 9 (4.48)"}
{"changes": "T28W Y60H S63R", "log10 Kd, replicates": "n.d. 3.62 4.48", "mean, log10 nM": "4.05", "control signals": "4 of 9 (4.36)"}
{"changes": "Y32W A101G", "log10 Kd, replicates": "n.d. 4.78 4.19", "mean, log10 nM": "4.48", "control signals": "0 of 9"}
{"changes": "Y52P V64Y F105R", "log10 Kd, replicates": "n.d. n.d. n.d.", "mean, log10 nM": "n.d.", "control signals": "2 of 9 (3.85)"}
{"changes": "S53K G61C S63Q", "log10 Kd, replicates": "n.d. n.d. n.d.", "mean, log10 nM": "n.d.", "control signals": "0 of 9"}
{"changes": "R56Q R100P F105I", "log10 Kd, replicates": "n.d. n.d. n.d.", "mean, log10 nM": "n.d.", "control signals": "1 of 9 (3.92)"}
{"changes": "S35T V50I F59M", "log10 Kd, replicates": "2.03 1.63 n.d.", "mean, log10 nM": "1.83", "control signals": "0 of 9"}
{"changes": "G55R S107R", "log10 Kd, replicates": "n.d. n.d. n.d.", "mean, log10 nM": "n.d.", "control signals": "0 of 9"}
{"changes": "D62V S63W R100W", "log10 Kd, replicates": "n.d. n.d. n.d.", "mean, log10 nM": "n.d.", "control signals": "3 of 9 (3.75)"}

Reference: Engelhart et al. 2022, doi:10.1038/s41597-022-01779-4. File: FLAb, binding data.